Results as given in BindingDB's records for doi:10.1074/jbc.M512374200 (German Cancer Research Center, 2006).

Columns and labels:
[1] = biological target: cAMP-dependent protein kinase catalytic subunit alpha [L49I,V123M,E127D,Q181K,T183A] (Bos taurus, UniProt P00517, E127D/L49I/Q181K/T183A/V123M); assay: Kinase Activity Assay
Description: (§1) The enzyme activity was assayed by using an ATP regenerative NADH consuming system. The reaction was started with adding ATP to the mixture containing enzyme, substrate, and inhibitor. The decrease of NADH was time-dependent, and was measured at 340 nm with three independent measurements per data point. IC50 values were calculated using SigmaPlot 8.0 and Origin 5 software.

[2] = biological target: cAMP-dependent protein kinase catalytic subunit alpha [L49I,Q181K,T183A] (Bos taurus, UniProt P00517, L49I/Q181K/T183A); assay: Kinase Activity Assay
Description: as §1

Cc1cncc2cccc(S(=O)(=O)N3CCCNC[C@@H]3C)c12 [H-1152] gave an IC50 [1] of 149 nM and an IC50 [2] of 58 nM.
